This passage reports Kd results from paper PMC11305080 (2024).

Chains of the proteins cited; added tags and fusions are not shown. Residues count along the entry.
UniProt Q8NBP7, 153-692: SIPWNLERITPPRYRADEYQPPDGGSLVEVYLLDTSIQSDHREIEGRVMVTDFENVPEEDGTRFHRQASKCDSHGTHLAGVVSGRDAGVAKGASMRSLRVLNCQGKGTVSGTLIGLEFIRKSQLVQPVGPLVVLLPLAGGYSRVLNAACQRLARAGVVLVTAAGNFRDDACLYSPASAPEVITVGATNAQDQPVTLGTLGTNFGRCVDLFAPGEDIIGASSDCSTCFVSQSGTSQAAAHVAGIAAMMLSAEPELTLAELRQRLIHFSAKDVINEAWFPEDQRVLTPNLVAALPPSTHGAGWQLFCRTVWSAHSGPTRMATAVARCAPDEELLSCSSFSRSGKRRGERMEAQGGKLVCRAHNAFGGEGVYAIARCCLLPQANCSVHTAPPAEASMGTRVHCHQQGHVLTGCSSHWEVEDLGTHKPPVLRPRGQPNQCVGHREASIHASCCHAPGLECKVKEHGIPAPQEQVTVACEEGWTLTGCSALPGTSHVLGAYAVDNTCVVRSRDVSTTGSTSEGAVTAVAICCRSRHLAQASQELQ

This experiment addresses human proprotein convertase subtilisin/kexin type 9 (PCSK9) (human, UniProt Q8NBP7 153-692). The experiment in a line: BLI.

B1: 1D05 Fab (Fab, V domains shown)
VH: QVQLVQSGAEVKKPGSSVKVSCKASGGTFNSHAISWVRQAPGQGLEWMGGINPILGIANYAQKFQGRVTITADESTSTAYMELSSLRSEDTAVYYCARHYEIQIGRYGMNVYYLMYRFASWGQGTLVTVSS
VL: DIQMTQSPSSLSASVGDRVTITCRASQGIRSALNWYQQKPGKAPKLLIYNGSTLQSGVPSRFSGSGSGTDFTLTISSLQPEDFAVYYCQQFDGDPTFGQGTKVEIK
The molecule B1 returned a Kd of 15.8 nM. This lies in the double-digit nanomolar range.

A word on the Kd: it is a measure of binding affinity in units of concentration. Read a low Kd as a tighter complex.
